Bioassay records: PubChem, ICCB-Longwood Screening Facility, Harvard Medical School
The list is not random: actives were taken first. Their share in the collection is about 0.7%.
GIV-Gai inh – GIV-Galpha-i interaction inhibition. P08753. Galpha-i3/FITC-GIV peptide fluorescence polarization, 90 min; active compounds read low; scaled: aluminum fluoride 0%, vehicle 100%. percent of control (FP), % (test concentration not listed). 210,000 compounds, 0.42% hits. AID 1224905;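 active = replicate mean at 85% of control or lower, very high polarization wells dropped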;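 also: lower values mean more displacement of the GIV peptide from Galpha-i3; wells of about 15 µL received 100 nL stock; the first replicate is given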
Sa growth inh – S. aureus growth inhibition; S. aureus RN4220 growth, OD600, 20 h, 42 °C; hits give low values; relative growth, % (concentration not given with the values); hit rate 0.53% among 170,000;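 active = relative growth at most 50% at the other temperature and 20+ points below 30 °C, or under 10% at both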
HCMV NEC inh – inhibitors of HCMV UL50-UL53 nuclear egress complex interaction. HTRF UL50-UL53 interaction, normalized percent inhibition. hit rate 0.15% among 190,000. inhibition, % (no concentration beside the values). AID 1918969; in the data active = inhibition above about 27%, passing the limit was not always enough
* hit, by the source's call; x = not tested or not shown.

1) C/C=C(/C)C(=O)OC1CC(O)(C(C)C)C2C(OC(=O)c3ccc(O)cc3)CC(C)=CCC12C (stereo not drawn)
2) COc1ccccc1N=C(NOCc1ccccc1)c1nonc1N
3) CCCOc1ccc(C2C3=C(CC(C)(C)CC3=O)Nc3ccccc3N2C(=O)C(F)(F)F)cc1OC (stereo not drawn)
4) Cn1cccc1/C=C1\CCC/C(=C\c2cccn2C)C1=O
5) COc1ccc2c(c1)CC/C(=C\c1cccn1C)C2=O
6) COc1ccc(CNC(=O)c2cc3cc4ccc(Cl)cc4nc3o2)c(OC)c1
7) COc1ccc(CNC(=O)CCC(=O)N2Cc3cccc(OC)c3Oc3ncccc32)cc1
8) Cc1ccc(-c2c(CN3CCN(C)CC3)csc2C)cc1
Assay by compound,1,2,3,4,5,6,7,8
GIV-Gai inh,x,105,104,-88*,101,114,111,110
Sa growth inh,6.0*,x,x,58,69,x,x,6.2*
HCMV NEC inh,-14,x,-20,-78,-50,x,3,-4

9) Cc1ccc(-c2c(CN3CCN(c4cccc(C)c4C)CC3)csc2C)cc1
10) COc1ccc(OC)c(C2NC(=O)NC(C)=C2C(=O)OCc2ccc3c(c2)OCO3)c1 (stereo not drawn)
11) CC(C)OCCCn1c(=O)c2cc(Cl)ccc2n2c(SCc3c(F)cccc3Cl)nnc12
12) CSc1nc(NC(C)C)c(C#N)c(-c2ccccc2)n1
13) CSc1nc(NCc2ccccc2)c(C#N)c(-c2ccccc2)n1
14) COC(=O)c1ccccc1N1C(=O)C2C3C=CC(C(OC(C)=O)OC(C)=O)(O3)C2C1=O (stereo not drawn)
15) CC(NCCn1cnc2c(N)ncnc21)c1ccccc1 (stereo not drawn)
16) CCS(=O)(=O)N1N=C(c2ccccc2)CC1c1cc2cc3c(cc2nc1Cl)OCCO3 (stereo not drawn)
Assay by compound,9,10,11,12,13,14,15,16
GIV-Gai inh,106,100,98,97,100,99,92,-53*
Sa growth inh,105,x,x,x,115,x,87,106
HCMV NEC inh,x,1,10,29*,22,x,36,x

17) CC(=O)N1N=C(c2ccccc2)CC1c1cc2cc3c(cc2nc1Cl)OCO3 (stereo not drawn)
18) CCN(CC(=O)NC1CCS(=O)(=O)C1)c1nc(-c2cccnc2)nc2sc3c(c12)CCCC3 (stereo not drawn)
19) Cc1ccc(CN(C)c2nc(-c3cccnc3)nc3sc4c(c23)CCCC4)o1
20) Cc1[nH]nc(-c2c(C)sc(C)c2S(=O)(=O)N2CCN(c3ccccc3F)CC2)c1C
21) Cn1ccc(=O)c2ccccc21
22) Cc1csc(-c2cc(S(=O)(=O)Nc3ccc(S(N)(=O)=O)cc3)c(C)s2)n1
23) Cc1csc(-c2cc(S(=O)(=O)Nc3ccc(C)c(F)c3)c(C)s2)n1
24) Cc1ccc(-n2nnnc2S(C)(=O)=O)c(C)c1
Assay by compound,17,18,19,20,21,22,23,24
GIV-Gai inh,105,x,x,103,104,170,66*,x
Sa growth inh,94,86,2.1*,x,100,x,x,76
HCMV NEC inh,-23,-34,-31,x,-12,x,x,-10

25) Cc1cccc(-n2nnnc2S(C)(=O)=O)c1
26) O=C(Oc1cccc(-n2cnnn2)c1)c1ccccc1Br
27) O=C(c1cccs1)n1cc(C(F)(F)F)ccc1=O
28) Cc1ccccc1-c1nn2c(=O)cc(N3CCN(S(=O)(=O)Cc4ccccc4)CC3)nc2s1
29) Cc1cccc(-c2nn3c(=O)cc(N4CCN(S(=O)(=O)c5ccccc5C)CC4)nc3s2)c1
30) CC(C)c1ccc(S(=O)(=O)N2CCN(c3cc(=O)n4nc(-c5ccccc5)sc4n3)CC2)cc1
31) CCOc1ccc(S(=O)(=O)N2CCN(c3cc(=O)n4nc(-c5ccccc5)sc4n3)CC2)cc1
32) CCOC(=O)c1c(C)oc2ncnc(Nc3cccc(Cl)c3)c12
Assay by compound,25,26,27,28,29,30,31,32
GIV-Gai inh,103,99,x,101,105,101,101,100
Sa growth inh,-0.6*,x,99,x,x,x,x,x
HCMV NEC inh,x,13,-36,-9,-5,43*,45*,-34

33) O=C(COC(=O)c1ccc2c(c1)OCCO2)Nc1ccc(N2CCOCC2)cc1
34) CC(=O)Nc1ccc(S(=O)(=O)NC(c2ccc(Cl)cc2)c2nnc(-c3ccccc3)o2)cc1 (stereo not drawn)
35) O=S(=O)(N=C1SCCS1)c1ccccc1
36) CC1=CC(=O)C=C(C)C1=NS(=O)(=O)c1ccccc1
37) COc1ccc(CNC(=O)c2ccc(N3CCCS3(=O)=O)cc2)cc1OC
38) Cc1oc2c(c1C(=O)NCCCn1ccnc1)C(=O)c1ccccc1C2=O
39) O=C1c2ccccc2C(=O)c2c1oc1c3c(ccc21)OCN(CCCn1ccnc1)C3
40) CC(C)(C)N1COc2ccc3c4c(oc3c2C1)C(=O)c1ccccc1C4=O
Assay by compound,33,34,35,36,37,38,39,40
GIV-Gai inh,x,97,x,108,96,91,x,109
Sa growth inh,91,x,x,-0.4*,x,-0.8*,5.8*,50
HCMV NEC inh,-6,-20,-11,x,-12,x,-72,32

41) Cc1oc2c(c1C(=O)NCCC(C)C)C(=O)c1ccccc1C2=O
42) CCCCCN1COc2ccc3c4c(c(=O)oc3c2C1)CCC4
43) O=C1c2ccccc2C(=O)c2c1oc1c3c(ccc21)OCN(CCC1=CCCCC1)C3
44) COc1ccc(CCNc2ccccc2C(=O)O)cc1OC
45) CCCOC(=O)C1=C(C)NC2=C(C(=O)CC(c3ccccc3)C2)C1c1cc2c(cc1Br)OCO2 (stereo not drawn)
46) Cc1ccc(N2C(=O)C(N3C(=O)c4c(Cl)c(Cl)c(Cl)c(Cl)c4C3=O)C2c2cccc(Br)c2)cc1C (stereo not drawn)
47) CCS(=O)(=O)c1oc(-c2ccc(F)cc2)nc1S(=O)(=O)c1ccccc1
48) CCCCS(=O)(=O)c1oc(-c2ccc(F)cc2)nc1S(=O)(=O)c1ccc(C)cc1
Assay by compound,41,42,43,44,45,46,47,48
GIV-Gai inh,108,107,x,x,100,106,108,107
Sa growth inh,17,101,7.0*,95,x,x,2.2*,4.8*
HCMV NEC inh,x,22,-103,-4,-18,x,-12,-16

49) CCCCS(=O)(=O)c1oc(-c2cccs2)nc1S(=O)(=O)c1ccc(F)cc1
50) CCC(C)S(=O)(=O)c1oc(-c2ccc(F)cc2)nc1S(=O)(=O)c1ccc(F)cc1 (stereo not drawn)
51) CC(C)CS(=O)(=O)c1oc(-c2cccs2)nc1S(=O)(=O)c1ccccc1
52) C=CCNc1oc(-c2ccc(F)cc2)nc1S(=O)(=O)c1ccccc1
53) CCC(C)S(=O)(=O)c1oc(-c2ccc(F)cc2)nc1S(=O)(=O)c1ccc(C)cc1 (stereo not drawn)
54) CCCCCS(=O)(=O)c1oc(-c2cccs2)nc1S(=O)(=O)c1ccc(C)cc1
55) COc1cccc(C(=O)N2N=C(C(F)(F)F)CC2(O)c2cccc(OC)c2)c1 (stereo not drawn)
56) S=c1[nH]nc(-c2sc3ccccc3c2Cl)n1CCN1CCOCC1
Assay by compound,49,50,51,52,53,54,55,56
GIV-Gai inh,107,106,101,103,99,109,105,x
Sa growth inh,103,15*,23*,x,80,88,x,88
HCMV NEC inh,-23,-23,-20,-20,-15,-16,x,9

57) COc1ccc(CNC(=O)c2ccc(-c3ccc(S(=O)(=O)N4CCCC4)cc3)cc2)c(OC)c1
58) COC(=O)/C=C1\SC(N2N=C(c3ccco3)CC2c2ccc(OC)cc2)=NC1=O (stereo not drawn)
59) COc1cc(C(=O)Nc2ccc3oc(-c4cccc(C)c4)nc3c2)cc(OC)c1OC
60) CN(C)C(=O)c1ccc2c(c1)nc(CN1CCN(C(=O)c3ccc(C(C)(C)C)cc3)CC1)n2C
61) CCC(=O)Nc1nc(-c2ccccc2)cs1
62) CC1Oc2ccc(-c3csc(NC(=O)c4cccnc4)n3)cc2NC1=O (stereo not drawn)
63) O=c1cc(O)sc2ccccc12
64) O=c1[nH]sc2ccccc12
Assay by compound,57,58,59,60,61,62,63,64
GIV-Gai inh,102,x,101,101,x,90,108,x
Sa growth inh,x,92,x,x,93,x,57,-1.8*
HCMV NEC inh,x,-32,-10,x,-29,-8,-1,10
